{
  "source": "patent US6703367B1",
  "about": "“Methods for treating hot flashes and gynaecomastia” (Praecis Pharmaceuticals Inc., priority 2001, dated 2004)",
  "key": {"[1]": {"test_system": "patients with stage D1 or D2 metastatic prostate cancer or a rising PSA level after local therapy", "test": "Endocrine-related questionnaire: occurrence of hot flashes during treatment (Example 1)", "assay_type": "in vivo, human", "details": "for patients experiencing hot flashes: Example 1 treatment regimens"}, "[2]": {"test_system": "patients with stage D1 or D2 metastatic prostate cancer or a rising PSA level after local therapy", "test": "Questioning of treated patients on the occurrence of gynaecomastia (Example 2)", "assay_type": "in vivo, human", "details": "patients treated as in Example 1"}, "[3]": {"test_system": "patients with stage D1 or D2 metastatic prostate cancer or a rising PSA level after local therapy", "test": "Questionnaire on frequency, severity and duration of hot flashes, 4 weeks of treatment (Example 4)", "assay_type": "in vivo, human"}, "[4]": {"test_system": "gynaecomastia", "details": "in vivo; cited from earlier work"}, "[5]": {"test_system": "hot flashes", "details": "in vivo; cited from earlier work"}},
  "data": [
    {"substance": "Ac-D-Nal^1, 4-Cl-D-Phe^2, D-Pal^3, N-Me-Tyr^5, D-Asn^6, Lys(iPr)^8, D-Ala^10-LHRH [PPI-149]", "values": [
      {"measurement": "patients experiencing hot flashes", "setting": "[1]", "result": "did not experience hot flashes"},
      {"measurement": "Occurence of Hot Flashes", "setting": "[1]; patients with hot flashes / patients treated, PPI-149 at 30 mg/kg/day or 50 mg/kg/day, e.g. 14 or 28 days", "result": "0/8"},
      {"measurement": "occurrence of gynaecomastia compared with leuprolide depot", "setting": "[2]", "result": "experienced gynaecomastia to a lesser extent"},
      {"measurement": "Duration of Hot Flashes: patients with 0-2 minutes", "setting": "[3]; 4 weeks of treatment, duration 0-2 minutes", "result": 31, "unit": "%"},
      {"measurement": "Duration of Hot Flashes: patients with 0 minutes", "setting": "[3]; 4 weeks of treatment, duration 0 minutes", "result": 61, "unit": "%"},
      {"measurement": "Duration of Hot Flashes: patients with ≧5 minutes", "setting": "[3]; 4 weeks of treatment, duration ≧5 minutes", "result": 8, "unit": "%"},
      {"measurement": "Severity of Hot Flashes: patients with mild-moderate hot flashes", "setting": "[3]; 4 weeks of treatment, mild-moderate", "result": 38, "unit": "%"},
      {"measurement": "Severity of Hot Flashes: patients with moderate-severe hot flashes", "setting": "[3]; 4 weeks of treatment, moderate-severe", "result": 0, "unit": "%"},
      {"measurement": "Occurrence of Hot Flashes: patients with 1-4 hot flashes/week", "setting": "[3]; 4 weeks of treatment, number of hot flashes/week 1-4", "result": 19, "unit": "%"},
      {"measurement": "Occurrence of Hot Flashes: patients with 5->10 hot flashes/week", "setting": "[3]; 4 weeks of treatment, number of hot flashes/week 5->10", "result": 20, "unit": "%"},
      {"measurement": "Severity of Hot Flashes: patients with severity 0", "setting": "[3]; 4 weeks of treatment, severity 0", "result": 62, "unit": "%"},
      {"measurement": "duration of hot flashes compared with leuprolide and anti-androgen", "setting": "[3]; first 4 weeks of treatment", "result": "lasted for a shorter period of time"},
      {"measurement": "frequency of hot flashes compared with leuprolide and anti-androgen", "setting": "[3]; first 4 weeks of treatment", "result": "experienced hot flashes less frequently"},
      {"measurement": "severity of hot flashes compared with leuprolide and anti-androgen", "setting": "[3]; first 4 weeks of treatment", "result": "less severe"}
    ]},
    {"substance": "CLOMIPHENE", "values": [
      {"measurement": "side effects in gynaecomastia treatment", "setting": "[4]", "result": "associated with adverse side-effects"}
    ]},
    {"substance": "Medthyldopa", "values": [
      {"measurement": "side effects associated with the treatment", "setting": "[5]", "result": "fatigue, weakness, dizziness, and nausea"}
    ]},
    {"substance": "Tamoxifen", "values": [
      {"measurement": "side effects associated with the treatment", "setting": "[5]", "result": "hot flashes are also the most frequent side effect"}
    ]},
    {"substance": "clonidine", "values": [
      {"measurement": "side effects associated with the treatment", "setting": "[5]", "result": "drowsiness, constipation, orthostatic hypotension, dry mouth, headache, nausea, fatigue, and decreased libido"}
    ]},
    {"substance": "leuprolide [reference compound]", "values": [
      {"measurement": "patients experiencing hot flashes", "setting": "[1]", "result": "more than half of the patients"}
    ]}
  ]
}
